{"sequences": {"note": "Sequences of proteins named here, by UniProt entry; tags and fusion partners are left off.", "UniProt P08659, whole entry, looked up": "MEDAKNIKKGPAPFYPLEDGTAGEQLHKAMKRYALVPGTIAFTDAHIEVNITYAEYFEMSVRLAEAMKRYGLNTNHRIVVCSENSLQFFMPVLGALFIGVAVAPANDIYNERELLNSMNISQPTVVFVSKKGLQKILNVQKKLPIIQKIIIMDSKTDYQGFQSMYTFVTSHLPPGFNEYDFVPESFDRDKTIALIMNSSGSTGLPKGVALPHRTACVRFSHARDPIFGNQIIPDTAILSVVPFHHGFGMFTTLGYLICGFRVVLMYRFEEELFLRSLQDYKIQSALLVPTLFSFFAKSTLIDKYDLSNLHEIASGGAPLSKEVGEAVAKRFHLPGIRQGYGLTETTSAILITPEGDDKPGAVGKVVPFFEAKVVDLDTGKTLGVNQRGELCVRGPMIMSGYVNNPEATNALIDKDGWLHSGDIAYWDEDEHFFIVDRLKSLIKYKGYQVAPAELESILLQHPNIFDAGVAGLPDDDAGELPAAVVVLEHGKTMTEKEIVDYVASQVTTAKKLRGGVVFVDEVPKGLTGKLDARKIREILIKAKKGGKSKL"}, "source": "PubChem BioAssay AID1006", "about": "(Sanford-Burnham Center for Chemical Genomics, 2008)", "note": "The entries are a selection whose mix differs from that of the whole data set. Some of these compounds have results that are not shown, active ones among them. Calls of active or inactive are those of the source.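 How the source made its calls: active means inhibition above about 50% when tested at 10 µM (limit read from the data); inactive means the rest.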"}
{"biological_target": "Luciferin 4-monooxygenase (Photinus pyralis) (UniProt P08659)", "assay": "firefly luciferase enzyme inhibitors, primary screen, artefact control for luciferase-based inhibitor screens, biochemical, luminescence, ATPLite (AID 1006)", "conditions": "10 min, at 10 µM, hits give high values"}
{"smiles": "CN(C)c1cccc(C(=O)NCC2(N(C)C)CCCCC2)c1", "inhibition": "inactive: -8.7%"}
{"smiles": "O=C(OC1CN2CCC1CC2)C(CO)(c1ccccc1)c1ccccc1", "note": "(centres undefined)", "inhibition": "inactive: -5.9%"}
{"smiles": "COc1cccc(C(=O)NCC2(N3CCCCC3)CCCCC2)c1", "inhibition": "inactive: -3.4%"}
{"smiles": "CCN1CCCC(OC(=O)C2(O)c3ccccc3C=Cc3ccccc32)C1", "note": "(centres undefined)", "inhibition": "inactive: -12%"}
{"smiles": "C=CCN1CCN(CCOC(=O)C(O)(c2ccccc2)c2ccccc2)CC1", "inhibition": "inactive: -9.1%"}
{"smiles": "CN(C)C1CCCC1OC(=O)C(O)(c1ccccc1)c1ccccc1", "note": "(centres undefined)", "inhibition": "inactive: -2.5%"}
{"smiles": "Cc1ccccc1C(=O)NCC1(N2CCCCC2)CCCCC1", "inhibition": "inactive: -11%"}
{"smiles": "CC(C)N1C(=O)CC2(CCN(CCOC(=O)C(O)(c3ccccc3)c3ccccc3)CC2)C1=O", "inhibition": "inactive: 0.5%"}
{"smiles": "O=C(NCC1(N2CCCCC2)CCCCC1)c1cc([N+](=O)[O-])ccc1Cl", "inhibition": "inactive: -2.6%"}
